These results are taken from article PMC12102759.

The chains are these.
B1: MBOAT1 peptide 15-30 (Lysophospholipid acyltransferase 1), 16-mer library wild type / USP7 MATH (USP7 MATH domain, residues 53-206) (parent)
chain 1: TGSTYLHPLSELLGIP
chain 2: NTAEEDMEDDTSWRSEATFQFTVERFSRLSESVLSPPCFVRNLPWKIMVMPRFYPDRPHQKSVGFFLQCNAESDSTSWSCHAQAVLKIINYRDDEKSFSRRISHLFFHKENDWGFSNFMAWSEVTDPEKGFIDDDKVTFEVFVQADAPHGVAWD
B2: CAPRIN1 peptide 364-379 (Caprin-1), 16-mer library wild type / G3BP1 NFT2 (G3BP1 NTF2 domain, residues 1-139) (parent)
chain 1: AQMQGPYNFIQDSMLD
chain 2: MVMEKPSPLLVGREFVRQYYTLLNQAPDMLHRFYGKNSSYVHGGLDSNGKPADAVYGQKEIHRKVMSQNFTNCHTKIRHVDAHATLNDGVVVQVMGLLSNNNQALRRFMQTFVLAPEGSVANKFYVHNDIFRYQDEVFG
B3: AZIN2 peptide 1-16 (Antizyme inhibitor 2), 16-mer library wild type / USP7 MATH (USP7 MATH domain, residues 53-206) (parent)
chain 1: MAGYLSESDFVMVEEG
chain 2: B1 chain 2

The first assay covers variants of B1. The assay is described as follows: proteomic peptide phage display deep mutational scan (ProP-PD DMS): M13 P8 16-mer library selected against immobilised GST-tagged bait for four days (rounds), NGS of the eluted pools per day and pseudo-replica. To be noted: with USP7 MATH (USP7 MATH domain, residues 53-206); bait immobilised on MaxiSorp plates (10 µg), library pre-cleared on GST, 2 h binding at 4 °C, five washes; one round per day, days 1-4; value from days 2 and 3; keep out of graded; scale: average fractional NGS count over selection days 2 and 3.
As to chain 1 T4Q, the screen value is 0. Turning to chain 1 T4M, the screen value was determined as 0.000102. Same read-out and setting: under chain 1 T4G stands 0. On the same count and under the same terms, under chain 1 I15S stands 0. chain 1 I15L: the screen value came to 0.

On to chain 1 I15Q, for which the screen value is 2.63e-05. chain 1 I15F: the screen value amounted to 1.61e-05. The same measure, in the same setting: under chain 1 I15R stands 0; under chain 1 I15W, 0.000224. On the same count and under the same terms, under chain 1 I15M stands 0.000147; under chain 1 I15P, 0. Regarding chain 1 I15G, the screen value was 0.

Consider chain 1 I15V, for which the screen value amounted to 0. Consider chain 1 L6I, for which the screen value was 3.89e-05. Still for that read-out and setting: under chain 1 L6F stands 0. Consider chain 1 L6W, for which the screen value is 0.

Consider chain 1 L6M, for which the screen value stood at 0. As for chain 1 L6P, the screen value was 0. Take chain 1 L6D: the screen value was 0. Turning to chain 1 L6Q, the screen value is 0.

For chain 1 L6V, the screen value came to 0. In the case of chain 1 L13M, the screen value is 0. For chain 1 L13S, the screen value turned out to be 0.

Regarding chain 1 L13F, the screen value amounted to 1.45e-05. In the case of chain 1 L13I, the screen value stood at 0. Same read-out and setting: under chain 1 L9M stands 0. Still for that read-out and setting: under chain 1 L9I stands 0; under chain 1 Y5N, 0; under chain 1 Y5D, 7.37e-05. Still for that read-out and setting: under chain 1 Y5G stands 0; under chain 1 Y5P, 0; under chain 1 Y5M, 0. As to chain 1 Y5S, the screen value came out at 0. The same measure, in the same setting: under chain 1 Y5W stands 0.00149; under chain 1 Y5V, 6.69e-06; under chain 1 Y5Q, 0. Consider chain 1 Y5A, for which the screen value came out at 0.

Variants of B2 are the subject of another assay. Described as above. As to conditions: with G3BP1 NFT2 (G3BP1 NTF2 domain, residues 1-139); bait immobilised on MaxiSorp plates (10 µg), library pre-cleared on GST, 2 h binding at 4 °C, five washes; one round per day, days 1-4; value from days 2 and 3; keep out of graded; scale: average fractional NGS count over selection days 2 and 3.
As for chain 1 AQMQGPTNFIQDSMLD [chain 1 Y7T], the screen value worked out at 0. Same read-out and setting: under chain 1 AQMQGPGNFIQDSMLD [chain 1 Y7G] stands 0; under chain 1 AQMQGPQNFIQDSMLD [chain 1 Y7Q], 8.09e-05; under chain 1 AQMQGPKNFIQDSMLD [chain 1 Y7K], 0. In the case of chain 1 AQMQGPANFIQDSMLD [chain 1 Y7A], the screen value amounted to 0. chain 1 AQMQGPMNFIQDSMLD [chain 1 Y7M]: the screen value is 7.42e-05. Regarding chain 1 AQMQGPYNFEQDSMLD [chain 1 I10E], the screen value came out at 4.02e-05. Still for that read-out and setting: under chain 1 AQMQGPYNFSQDSMLD [chain 1 I10S] stands 7.25e-05; under chain 1 AQMQGPYNFAQDSMLD [chain 1 I10A], 8.85e-05; under chain 1 AQMQGPYNFNQDSMLD [chain 1 I10N], 4.39e-05. chain 1 AQMQGPYNFRQDSMLD [chain 1 I10R]: the screen value turned out to be 0.000113. For chain 1 AQMQGPYNFPQDSMLD [chain 1 I10P], the screen value stood at 0. Same read-out and setting: under chain 1 AQMQRPYNFIQDSMLD [chain 1 G5R] stands 2.06e-05; under chain 1 AQMQEPYNFIQDSMLD [chain 1 G5E], 8.26e-05; under chain 1 AQMQGPYNFIQDSGLD [chain 1 M14G], 3.45e-05. Same read-out and setting: under chain 1 AQMQGPYNFIQDSKLD [chain 1 M14K] stands 3.76e-05; under chain 1 AQMQGPYNFIQDSPLD [chain 1 M14P], 0; under chain 1 AQMQGPYNFIDDSMLD [chain 1 Q11D], 0. Same read-out and setting: under chain 1 AQMQGPYNFIYDSMLD [chain 1 Q11Y] stands 3.52e-05; under chain 1 AQMQGPYNFIEDSMLD [chain 1 Q11E], 0. Turning to chain 1 AQMQGPYNFIIDSMLD [chain 1 Q11I], the screen value came out at 0. For the variant chain 1 AQMQGPYNFIADSMLD [chain 1 Q11A], the screen value was determined as 5.63e-05. On the same count and under the same terms, under chain 1 AQMTGPYNFIQDSMLD [chain 1 Q4T] stands 4.85e-05. Turning to chain 1 KQMQGPYNFIQDSMLD [chain 1 A1K], the screen value is 4.57e-05. Same read-out and setting: under chain 1 AQMQGPYNFIQISMLD [chain 1 D12I] stands 2.06e-05.

Take chain 1 AQMQGPYNFIQWSMLD [chain 1 D12W]: the screen value was 0.

As for chain 1 AQMQGPYNFIQDSMQD [chain 1 L15Q], the screen value came to 0. The same measure, in the same setting: under chain 1 AQMQGPYNFIQDSMPD [chain 1 L15P] stands 5.63e-05; under chain 1 AQMQGPYNFIQDSMAD [chain 1 L15A], 2.87e-05; under chain 1 AQMQGPYNFIQDSMED [chain 1 L15E], 2.23e-05. For the variant chain 1 AQMQGPYNFIQDSMND [chain 1 L15N], the screen value was 0. Consider chain 1 AQMQGPYNFIQDSMTD [chain 1 L15T], for which the screen value is 0. Take chain 1 AQMQGPYNFIQDSMDD [chain 1 L15D]: the screen value turned out to be 2.23e-05. Same read-out and setting: under chain 1 AQMQGPYNFIQDSMGD [chain 1 L15G] stands 0; under chain 1 AQMQGPYNFIQDYMLD [chain 1 S13Y], 1.86e-05; under chain 1 AQMQGPYNFIQDHMLD [chain 1 S13H], 0. Turning to chain 1 AQMQGPYNFIQDIMLD [chain 1 S13I], the screen value came to 2.87e-05. Same read-out and setting: under chain 1 AQMQGPYNFIQDVMLD [chain 1 S13V] stands 3.73e-05; under chain 1 AQMQGPYNFIQDFMLD [chain 1 S13F], 4.39e-05; under chain 1 AQMQGPYNFIQDEMLD [chain 1 S13E], 0. For the variant chain 1 AQMQGPYNFIQDPMLD [chain 1 S13P], the screen value turned out to be 0. On to chain 1 AQMQGPYNFIQDKMLD [chain 1 S13K], for which the screen value was 0. The same measure, in the same setting: under chain 1 AQMQGPYNFIQDMMLD [chain 1 S13M] stands 0; under chain 1 AQMQGPYNFIQDQMLD [chain 1 S13Q], 0; under chain 1 AQMQGPYNNIQDSMLD [chain 1 F9N], 0. Same read-out and setting: under chain 1 AQMQGPYNPIQDSMLD [chain 1 F9P] stands 0. The same measure, in the same setting: under chain 1 AQMQGPYNMIQDSMLD [chain 1 F9M] stands 0; under chain 1 AQMQGPYNAIQDSMLD [chain 1 F9A], 0; under chain 1 AQMQGPYNIIQDSMLD [chain 1 F9I], 0. chain 1 AQMQGPYNTIQDSMLD [chain 1 F9T]: the screen value is 0.

The variants in a further assay derive from B3. The description is as above. As to conditions: with USP7 MATH (USP7 MATH domain, residues 53-206); bait immobilised on MaxiSorp plates (10 µg), library pre-cleared on GST, 2 h binding at 4 °C, five washes; one round per day, days 1-4; value from days 2 and 3; keep out of graded; scale: average fractional NGS count over selection days 2 and 3.
Take chain 1 S8G: the screen value is 0. For chain 1 S8F, the screen value came out at 8.6e-06. As for chain 1 S8A, the screen value amounted to 0. With chain 1 L5R, the screen value turned out to be 0. As for chain 1 L5T, the screen value came to 0. The same measure, in the same setting: under chain 1 L5M stands 0. As for chain 1 S6E, the screen value came to 0. The same measure, in the same setting: under chain 1 S6H stands 0; under chain 1 V13K, 0.

chain 1 V13W: the screen value was 0. Same read-out and setting: under chain 1 V13D stands 0; under chain 1 V13A, 1.04e-05. On to chain 1 V13G, for which the screen value is 6.69e-06. The same measure, in the same setting: under chain 1 G3A stands 3.89e-05; under chain 1 G3N, 0; under chain 1 G3S, 0. Take chain 1 G3R: the screen value stood at 2.57e-05.

In the case of chain 1 F10Y, the screen value was determined as 0.

As to chain 1 F10M, the screen value was 0. On the same count and under the same terms, under chain 1 F10I stands 0; under chain 1 F10N, 0. Same read-out and setting: under chain 1 G16W stands 2.96e-05; under chain 1 G16I, 1.53e-05; under chain 1 V11S, 8.6e-06. Same read-out and setting: under chain 1 V11Y stands 0; under chain 1 V11K, 1.04e-05; under chain 1 V11P, 9.63e-06. With chain 1 V11N, the screen value turned out to be 1.98e-05. On to chain 1 V11H, for which the screen value came out at 2.57e-05. Regarding chain 1 V11R, the screen value turned out to be 1.04e-05. Take chain 1 V11Q: the screen value came to 9.4e-06. Still for that read-out and setting: under chain 1 M12T stands 1.16e-05. Turning to chain 1 M12P, the screen value is 1.82e-05. The same measure, in the same setting: under chain 1 M12K stands 0; under chain 1 Y4A, 0.

With chain 1 Y4I, the screen value was determined as 0.
